From patent publication US6946447B2, “MDM2-specific antisense oligonucleotides” (Hybridon, Inc., priority 1997, dated 2005)
“And” between values parts separate entries of the source, which are not always exact repeats. Identical values can stand only once. Like-named read-outs stand apart in the source and are kept apart here. Strand notation (5' to 3'): a small letter for the sugar, then the base; units joined by * are phosphorothioate-linked, units joined directly phosphodiester-linked; [ ] holds rarer units or linkages, { } end groups; capitals alone tell only the bases. d = 2'-deoxy (DNA); m = 2'-O-methyl

Assays:
[1] = system: MDM2, p53 and p21 protein levels in DLD-1 cells; assay: Western blot of MDM2, p53 and p21 in DLD-1 cells; assay type: cell-based, human; settings: 24 hr (FIG. 24, lane A)
Description: (§1) Chemicals and Reagents. Cell culture media and phosphate-buffered saline (PBS) were obtained from Sigma Chemical Co. (St. Louis, Mo.). Fetal bovine serum (FBS), antibodies against p53 and p21, Lipofectin, trypsin, penicillin-streptomycin, and trypan blue stain were purchased from GIBCO-BRL (Grand Island, N.Y.). The anti-human-MDM2 monoclonal antibody (Chen L. et al., Proc Natl Acad Sci USA, 95: 195-200, 1998; Chen L. et al., Mol. Med. 5: 21-34, 1999) was kindly provided by J. Chen (Moffitt Cancer Center, Tampa, Fla.). Chemotherapeutic agents adriamycin and 5-fluorouracil (5-FU) were obtained from Sigma. Natural product topoisomerase I inhibitor 10-hydroxycamptothecin (HCPT) was obtained from the Midwest Co. (Beijing, China) with the purity of the drug being greater than 98% (Zhang R. et al., Cancer Chemother Pharm 41: 257-267, 1998). Cell Culture. The tumor cell lines, LS174T and DLD-1 were obtained from the American Type Culture Collection (Rockville, Md.) and cultured according to their instructions. […] The MDM2, p53 and p21 levels in cultured cells were analyzed by using the methods described previously (earlier (Chen L. et al., Proc Natl Acad Sci USA, 95: 195-200, 1998; Chen L. et al., Mol. Med. 5: 21-34, 1999; Wang H. et al., Int J. Oncol. 15: 653-660, 1999). In brief, cell lysate containing identical amounts of total protein were fractionated by SDS-PAGE and transferred to Bio-Rad Trans-Blot nitrocellulose membranes (Bio-Rad Laboratories, Hercules, Calif., USA). The nitrocellulose membrane was then incubated with blocking buffer (PBS containing 0.1% Tween 20 and 5% non-fat milk) for 1 hr at room temperature and washed with the washing buffer (PBS containing 0. […] After washing as described above the protein of interest was detected by ECL reagents from Amersham (Arlington Height, Ill.). […]
Following in vitro combination treatment of Oligos and chemotherapeutic agents HCPT, adriamycin, and 5-FU, the protein levels of MDM2, p53 and p21 were determined in DLD-1 cells. […]

[2] = system: human colon cancer LS174T xenografts; assay: Tumor growth in nude mice bearing LS174T xenografts
[3] = not given; remark: listed apart in the source
[4] = system: human colon cancer DLD-1 xenografts; assay: Tumor growth in nude mice bearing DLD-1 xenografts; assay type: in vivo
[5] = system: MDM2, p53 and p21 protein levels in LS174T cells; assay: Western blot of MDM2, p53 and p21 in LS174T cells; assay type: cell-based, human; settings: 24 hr (FIG. 20, lane A)
Description: as §1
Following in vitro combination treatment of Oligos and chemotherapeutic agents HCPT, adriamycin, and 5-FU, the protein levels of MDM2, p53 and p21 were determined in LS174T cells. […]

SJSA xenografts = assay: Tumor growth in nude mice bearing SJSA xenografts; assay type: in vivo; settings: for effect on tumor growth: SJSA xenografts (average 150 mg), ip, 5 doses/week
Protocol: 51:173-182, 1996). […] The control group received physiological saline only.
Tumor growth was monitored using the methods previously reported (74,75). Tumor weight (g) was calculated by the formula, ½·a·b^2, where “a” is the long diameter (cm) and “b” is the short diameter (cm) of the tumor. At the end of the experiment, tumors were removed, weighed, and then fixed for pathology evaluation.

JAR xenografts = assay: Tumor regression and survival of nude mice bearing large JAR xenografts, intratumoral injection; settings: direct injection, HCPT 3 mg/kg/day
[6] = female, nude, mouse, in vivo, 3 day
[7] = female, nude, mouse, in vivo, 6 day
[8] = female, nude, mouse, in vivo, 9 day
[9] = female, nude, mouse, in vivo, 12 day
[10] = female, nude, mouse, in vivo, 15 day
[11] = female, nude, mouse, in vivo, 18 day
[12] = day 3, oligo 20, HCPT 3, 5-FU 10 mg/kg/day
[13] = day 6, oligo 20, HCPT 3, 5-FU 10 mg/kg/day
[14] = day 9, oligo 20, HCPT 3, 5-FU 10 mg/kg/day
[15] = day 12, oligo 20, HCPT 3, 5-FU 10 mg/kg/day
[16] = day 15, oligo 20, HCPT 3, 5-FU 10 mg/kg/day
[17] = day 18, oligo 20, HCPT 3, 5-FU 10 mg/kg/day
[18] = day 21 (end of experiment), oligo 20, HCPT 3, 5-FU 10 mg/kg/day

Compound | MDM2, p53 and p21 protein levels, chemotherapeutic agent alone [1] | xenograft pathology (tumor histology) [2] | Growth ratio % T:C (mean tumor mass of treated group vs saline control) [2, 12] [%] | Growth ratio % T:C (mean tumor mass of treated group vs saline control) [2, 13] [%] | Growth ratio % T:C (mean tumor mass of treated group vs saline control) [2, 14] [%] | Growth ratio % T:C (mean tumor mass of treated group vs saline control) [2, 15] [%] | xenograft pathology (tumor histology) [4] | Growth ratio % T:C [4, 12] [%] | Growth ratio % T:C [4, 13] [%] | Growth ratio % T:C [4, 14] [%] | Growth ratio % T:C [4, 15] [%] | Growth ratio % T:C [4, 16] [%] | Growth ratio % T:C [4, 17] [%] | Growth ratio % T:C [4, 18] | MDM2, p53 and p21 protein levels, chemotherapeutic agent alone [5] | effect on tumor growth (SJSA xenografts) | other results
O=c1[nH]cc(F)c(=O)[nH]1 [Oligo 5-FU, 5-fluorouracil] | significantly induced MDM2 in a dose-dependent manner | No significant histological changes | 50.1 | 40.2 | 32.5 | 39.7 | histologically similar to the control tumors | 79.4 | 75.8 | 61.2 | 46.2 | 54.3 | 55.6 | 44.0% | induced p53, p21, and MDM2 in a dose-dependent manner | – | Survival Rates of Animals [6]: 100%; Survival Rates of Animals [7]: 100%; Survival Rates of Animals [8]: 100%; Survival Rates of Animals [9]: 100%; Survival Rates of Animals [10]: 100%; Survival Rates of Animals [11]: 100%; Survival Rates of Animals (female, nude, mouse, in vivo, 21 day): 100%; Growth ratio % T:C (mean tumor mass of treated group vs saline control) ([2]; day 18 (end of experiment), oligo 20, HCPT 3, 5-FU 10 mg/kg/day): 45.3%; Survival Rates of Animals [3, 6]: 100%; Survival Rates of Animals [3, 7]: 100%; Survival Rates of Animals [3, 8]: 100%; Survival Rates of Animals [3, 9]: 100%; Survival Rates of Animals [3, 10]: 100%; Survival Rates of Animals [3, 11]: 100%
CC[C@@]1(O)C(=O)OCc2c1cc1n(c2=O)Cc2cc3cc(O)ccc3nc2-1 [HCPT, 10-hydroxycamptothecin] | induced MDM2 and p21 in a dose-dependent manner | large necropurulent, ulcerative changes | 74.4 | 41.2 | 30.0 | 43.7 | histologically similar to the control tumors | 87.7 | 74.0 | 62.3 | 51.4 | 60.8 | 56.3 | 51.0% and 44% | induced p53, p21, and MDM2 in a dose-dependent manner | dose-dependent effect | Survival Rates of Animals (day 3, mice bearing DLD-1 xenografts): 100%; Survival Rates of Animals (day 6, mice bearing DLD-1 xenografts): 100%; Survival Rates of Animals (day 9, mice bearing DLD-1 xenografts): 100%; Survival Rates of Animals (day 12, mice bearing DLD-1 xenografts): 100%; Survival Rates of Animals (day 15, mice bearing DLD-1 xenografts): 100%; Survival Rates of Animals (day 18, mice bearing DLD-1 xenografts): 100%; Survival Rates of Animals (day 21, mice bearing DLD-1 xenografts): 100%; effect on tumor regression and animal survival (JAR xenografts): no effect; tumor growth inhibition ([2]; HCPT 3 mg/kg/day first week, then every other day): approximately 50%; Growth ratio % T:C (mean tumor mass of treated group vs saline control) [2, 16]: 49.1%; Survival Rates of Animals ([3]; day 3, mice bearing LS174T xenografts): 100%; Survival Rates of Animals ([3]; day 6, mice bearing LS174T xenografts): 100%; Survival Rates of Animals ([3]; day 9, mice bearing LS174T xenografts): 66.7%; Survival Rates of Animals ([3]; day 12, mice bearing LS174T xenografts): 50.0%; Survival Rates of Animals ([3]; day 15, mice bearing LS174T xenografts): 50.0%; Survival Rates of Animals ([3]; day 18, mice bearing LS174T xenografts): 50.0%; tumor growth inhibition ([4]; after 21-day treatment, HCPT 3 mg/kg/day first week, then every other day): approximately 51%
AS5-2HM: mismatch control hybrid oligonucleotide, 5′-UGAGACCAGTTGTCAGUCAC-3′, SEQ ID NO:48 (DNA mU*mG*dA*dG*dA*dC*dC*dA*dG*dT*dT*dG*dT*dC*dA*dG*mU*mC*mA*mC) | – | – | – | – | – | – | – | – | – | – | – | – | – | – | – | no effect | synergistic effect with HCPT on tumor growth (SJSA xenografts; SJSA xenografts, co-administration with HCPT): no synergistic effect
COc1cccc2c1C(=O)c1c(O)c3c(c(O)c1C2=O)C[C@@](O)(C(=O)CO)C[C@@H]3O[C@H]1C[C@H](N)[C@H](O)[C@H](C)O1 [adriamycin] | induced p21 and MDM2 | – | – | – | – | – | – | – | – | – | – | – | – | – | slightly induced p53, p21 and MDM2 | – | –
